Patent US20230287061A1, “NEW ANTIMICROBIAL PEPTIDES” (priority 2020, published 2023)

Tested on: Listeria monocytogenes
Experiment: Challenge test on meat model (agar-salami)
Format: cell-based
Settings: peptide at 256 μg/ml

## CC[C@H](C)[C@H](NC(=O)CNC(=O)CNC(=O)[C@H](CCCCN)NC(=O)[C@H](CCCNC(=N)N)NC(=O)[C@H](CCCNC(=N)N)NC(=O)[C@H](CS)NC(=O)[C@H](CCCNC(=N)N)NC(=O)[C@@H](NC(=O)[C@H](CCCNC(=N)N)NC(=O)[C@H](CCCNC(=N)N)NC(=O)[C@H](Cc1ccc(O)cc1)NC(=O)[C@@H](NC(=O)[C@@H](N)C(C)C)C(C)C)C(C)C)C(=O)N[C@@H](CCCNC(=N)N)C(=O)N[C@@H](Cc1ccccc1)C(=O)N[C@@H](C)C(=O)N[C@H](C(=O)N[C@@H](CC(N)=O)C(=O)NCC(=O)O)[C@@H](C)CC [Seq ID no1]
  L. monocytogenes level whose growth is inhibited: 10^2 UFC/g
